From patent publication US8460868B2, “Genetic markers for schizophrenia and bipolar disorder” (priority 2007, dated 2013)

How the values were obtained:
[1] = test system: patients with schizophrenia; assay: CATIE trial side effects (discontinued for safety concerns, COMPEFF score 5) by HPCAL1/SV2C genotype; assay type: in vivo, human; conditions: for OR vs. Low / OR vs. baseline: side effects; for OR vs. Low: vs low scoring genotype(s); for OR vs. baseline: vs sample not segmented by genotype
Experimental: The Clinical Antipsychotic Trials of Intervention Effectiveness (CATIE), a large federally funded clinical trial designed to assess the efficacy of antipsychotics in a real world setting, is a valuable resource for determining the role of genes in drug response (Stroup et al., Schizophr. Bull. 29:15-31 (2003); Lieberman et al., N. Engl. J. […] As part of the CATIE trial SNP genotyping was performed for roughly half of the trial participants (Sullivan et al., Mol. Psychiatry 13:570-584 (2008)). […] The design of the CATIE study has been described in detail by others (Stroup et al., Schizophr. Bull. 29:15-31 (2003); Lieberman et al., N. Engl. J. […] A total of 738 subjects consented to provide DNA for genetic study. […] Genotype and phenotype data for the CATIE trial were made available to qualified researchers through The NIMH Center for Collaborative Genetic Studies on Mental Disorders. For reduction to practice, we evaluated data for 417 patients with schizophrenia self reported as having exclusively European ancestry. […] Golden Helix, Bozeman, Mont.). To generate a P value, HelixTree calculates analysis of deviance (a likelihood ratio statistic) that compares the observed contingency table vs. an expected contingency table created with all the possible variations of the genetic model. […] The standard FDA registration trial definition of response of >20% decrease in Positive and Negative Syndrome Scale (PANSS Total Score) was used to assign subjects to a response category. […] Bull. 29:73-80 (2003)). […] The tables report odds ratios relative to the baseline values (sample not segmented by genotype) and relative to values for the low scoring, mutually exclusive genotype(s).

[2] = test system: patients with schizophrenia; assay: CATIE trial drug response (>20% decrease in PANSS Total Score) by HPCAL1/SV2C genotype; assay type: in vivo, human; conditions: HPCAL1 rs11679891 genotype C/C (C), vs low scoring genotype(s)
Experimental: The Clinical Antipsychotic Trials of Intervention Effectiveness (CATIE), a large federally funded clinical trial designed to assess the efficacy of antipsychotics in a real world setting, is a valuable resource for determining the role of genes in drug response (Stroup et al., Schizophr. Bull. 29:15-31 (2003); Lieberman et al., N. Engl. J. […] As part of the CATIE trial SNP genotyping was performed for roughly half of the trial participants (Sullivan et al., Mol. Psychiatry 13:570-584 (2008)). When combined with clinical drug response data, the genotyping data make possible a reduction to practice for the current invention as it relates to pharmacogenomic applications. The design of the CATIE study has been described in detail by others (Stroup et al., Schizophr. Bull. 29:15-31 (2003); Lieberman et al., N. Engl. J. […] A total of 738 subjects consented to provide DNA for genetic study. Details regarding SNP genotyping and quality control have been recently published (Sullivan et al., Mol. Psychiatry 13:570-584 (2008)). Genotype and phenotype data for the CATIE trial were made available to qualified researchers through The NIMH Center for Collaborative Genetic Studies on Mental Disorders. For reduction to practice, we evaluated data for 417 patients with schizophrenia self reported as having exclusively European ancestry. […]

[3] = SV2C rs1895391 genotype C/C (C)
[4] = SV2C rs6874435 genotype A/G, G/G (G)
[5] = SV2C rs10064352 genotype C/C (C)
[6] = SV2C rs10474464 genotype T/T (T)
[7] = SV2C rs12152728 genotype G/G (G)
[8] = SV2C rs1895391 genotype C/T, T/T (T)
[9] = SV2C rs10064352 genotype T/T (T)
[10] = SV2C rs10474464 genotype C/C (C)
[11] = SV2C rs12655684 genotype T/T (T)
[12] = SV2C rs12657276 genotype G/G (G)
[13] = SV2C rs17651115 genotype G/G (G)

SMILES: Cc1nc2n(c(=O)c1CCN1CCC(c3noc4cc(F)ccc34)CC1)CCCC2 [risperidone]
- Frequency Study ending side effects [1, 3]: 0.23
- OR vs. Low [1, 3]: 3.97
- OR vs. baseline [1, 3]: 2.19
- Frequency Study ending side effects [1, 4]: 0.24
- OR vs. Low [1, 4]: 4.20
- OR vs. baseline [1, 4]: 2.32
- Frequency Study ending side effects [1, 5]: 0.21
- OR vs. Low [1, 5]: 3.53
- OR vs. baseline [1, 5]: 1.95
- Frequency Study ending side effects [1, 6]: 0.21
- OR vs. Low [1, 6]: 3.53
- OR vs. baseline [1, 6]: 1.95
- Frequency Study ending side effects [1, 7]: 0.21
- OR vs. Low [1, 7]: 3.53
- OR vs. baseline [1, 7]: 1.95

SMILES: OCCOCCN1CCN(C2=Nc3ccccc3Sc3ccccc32)CC1 [quetiapine]
- OR vs. Low [2]: 3.86

SMILES: Cc1cc2c(s1)Nc1ccccc1N=C2N1CCN(C)CC1 [olanzapine]
- OR vs. Low [1, 8]: 4.33
- OR vs. baseline [1, 8]: 1.29
- OR vs. Low ([1]; SV2C rs4610441 genotype C/C (C)): 4.26
- Frequency Study ending side effects [1, 9]: 0.46
- OR vs. Low [1, 9]: 3.20
- OR vs. baseline [1, 9]: 2.56
- Frequency Study ending side effects [1, 10]: 0.54
- OR vs. Low [1, 10]: 4.70
- OR vs. baseline [1, 10]: 3.52
- OR vs. Low ([1]; SV2C rs12152728 genotype C/C (C)): 3.76
- Frequency Study ending side effects [1, 11]: 0.75
- OR vs. Low [1, 11]: 10.04
- Frequency Study ending side effects [1, 12]: 0.48
- OR vs. Low [1, 12]: 5.67
- OR vs. baseline [1, 12]: 2.77
- Frequency Study ending side effects [1, 13]: 0.43
- OR vs. Low [1, 13]: 4.63
- OR vs. baseline [1, 13]: 2.26
